Assay results reported in ChEMBL document CHEMBL5120850, “Conformational adjustment overcomes multiple drug-resistance mutants of tropomyosin receptor kinase” (Eur J Med Chem, 2022).

By UniProt entry, the sequences of proteins in these tests, tags left out. Where a name states a change or a piece, a line headed by the entry shows the natural chain unless it says otherwise.
UniProt Q9UM73: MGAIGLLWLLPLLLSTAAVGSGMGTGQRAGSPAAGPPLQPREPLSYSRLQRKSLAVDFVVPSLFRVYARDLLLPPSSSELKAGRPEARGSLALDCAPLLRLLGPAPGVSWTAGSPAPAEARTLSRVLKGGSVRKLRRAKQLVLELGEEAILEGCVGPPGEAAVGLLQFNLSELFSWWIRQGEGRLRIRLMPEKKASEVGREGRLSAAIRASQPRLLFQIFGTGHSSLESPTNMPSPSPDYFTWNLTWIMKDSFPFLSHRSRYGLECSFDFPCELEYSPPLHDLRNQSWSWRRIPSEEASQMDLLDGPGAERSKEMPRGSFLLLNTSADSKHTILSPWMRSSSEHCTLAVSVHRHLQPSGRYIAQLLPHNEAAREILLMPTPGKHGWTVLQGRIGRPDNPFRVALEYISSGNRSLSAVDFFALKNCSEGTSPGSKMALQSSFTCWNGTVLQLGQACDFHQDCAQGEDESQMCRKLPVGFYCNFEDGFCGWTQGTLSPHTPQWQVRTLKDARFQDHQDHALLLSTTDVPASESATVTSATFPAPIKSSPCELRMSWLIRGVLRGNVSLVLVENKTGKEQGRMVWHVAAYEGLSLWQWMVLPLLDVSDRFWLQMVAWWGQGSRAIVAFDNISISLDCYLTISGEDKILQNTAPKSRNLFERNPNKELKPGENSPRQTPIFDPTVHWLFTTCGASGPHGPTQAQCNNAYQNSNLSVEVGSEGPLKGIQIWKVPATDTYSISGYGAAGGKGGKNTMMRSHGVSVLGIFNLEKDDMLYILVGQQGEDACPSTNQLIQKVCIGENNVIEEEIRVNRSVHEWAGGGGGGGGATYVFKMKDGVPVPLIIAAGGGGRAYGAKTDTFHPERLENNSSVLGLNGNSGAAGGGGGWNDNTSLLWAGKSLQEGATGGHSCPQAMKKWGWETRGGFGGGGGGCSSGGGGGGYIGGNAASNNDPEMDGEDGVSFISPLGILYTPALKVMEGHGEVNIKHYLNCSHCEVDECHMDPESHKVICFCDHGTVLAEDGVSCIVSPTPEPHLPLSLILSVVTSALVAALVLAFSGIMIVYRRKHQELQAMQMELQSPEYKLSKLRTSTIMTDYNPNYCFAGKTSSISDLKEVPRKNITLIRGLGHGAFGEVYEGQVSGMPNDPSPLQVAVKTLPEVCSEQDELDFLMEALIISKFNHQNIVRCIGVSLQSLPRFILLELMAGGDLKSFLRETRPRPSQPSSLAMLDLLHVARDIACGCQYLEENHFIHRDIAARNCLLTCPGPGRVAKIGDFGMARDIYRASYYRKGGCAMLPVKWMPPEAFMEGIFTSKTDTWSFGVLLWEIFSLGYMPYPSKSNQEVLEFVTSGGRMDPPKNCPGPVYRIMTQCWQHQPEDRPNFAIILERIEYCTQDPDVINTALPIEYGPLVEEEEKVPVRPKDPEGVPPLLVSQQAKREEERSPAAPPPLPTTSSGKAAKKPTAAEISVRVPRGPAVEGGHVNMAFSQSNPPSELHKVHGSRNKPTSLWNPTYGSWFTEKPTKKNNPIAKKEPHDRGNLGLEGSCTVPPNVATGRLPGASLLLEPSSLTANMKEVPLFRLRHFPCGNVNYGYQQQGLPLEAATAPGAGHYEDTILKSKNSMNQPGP
UniProt P08922: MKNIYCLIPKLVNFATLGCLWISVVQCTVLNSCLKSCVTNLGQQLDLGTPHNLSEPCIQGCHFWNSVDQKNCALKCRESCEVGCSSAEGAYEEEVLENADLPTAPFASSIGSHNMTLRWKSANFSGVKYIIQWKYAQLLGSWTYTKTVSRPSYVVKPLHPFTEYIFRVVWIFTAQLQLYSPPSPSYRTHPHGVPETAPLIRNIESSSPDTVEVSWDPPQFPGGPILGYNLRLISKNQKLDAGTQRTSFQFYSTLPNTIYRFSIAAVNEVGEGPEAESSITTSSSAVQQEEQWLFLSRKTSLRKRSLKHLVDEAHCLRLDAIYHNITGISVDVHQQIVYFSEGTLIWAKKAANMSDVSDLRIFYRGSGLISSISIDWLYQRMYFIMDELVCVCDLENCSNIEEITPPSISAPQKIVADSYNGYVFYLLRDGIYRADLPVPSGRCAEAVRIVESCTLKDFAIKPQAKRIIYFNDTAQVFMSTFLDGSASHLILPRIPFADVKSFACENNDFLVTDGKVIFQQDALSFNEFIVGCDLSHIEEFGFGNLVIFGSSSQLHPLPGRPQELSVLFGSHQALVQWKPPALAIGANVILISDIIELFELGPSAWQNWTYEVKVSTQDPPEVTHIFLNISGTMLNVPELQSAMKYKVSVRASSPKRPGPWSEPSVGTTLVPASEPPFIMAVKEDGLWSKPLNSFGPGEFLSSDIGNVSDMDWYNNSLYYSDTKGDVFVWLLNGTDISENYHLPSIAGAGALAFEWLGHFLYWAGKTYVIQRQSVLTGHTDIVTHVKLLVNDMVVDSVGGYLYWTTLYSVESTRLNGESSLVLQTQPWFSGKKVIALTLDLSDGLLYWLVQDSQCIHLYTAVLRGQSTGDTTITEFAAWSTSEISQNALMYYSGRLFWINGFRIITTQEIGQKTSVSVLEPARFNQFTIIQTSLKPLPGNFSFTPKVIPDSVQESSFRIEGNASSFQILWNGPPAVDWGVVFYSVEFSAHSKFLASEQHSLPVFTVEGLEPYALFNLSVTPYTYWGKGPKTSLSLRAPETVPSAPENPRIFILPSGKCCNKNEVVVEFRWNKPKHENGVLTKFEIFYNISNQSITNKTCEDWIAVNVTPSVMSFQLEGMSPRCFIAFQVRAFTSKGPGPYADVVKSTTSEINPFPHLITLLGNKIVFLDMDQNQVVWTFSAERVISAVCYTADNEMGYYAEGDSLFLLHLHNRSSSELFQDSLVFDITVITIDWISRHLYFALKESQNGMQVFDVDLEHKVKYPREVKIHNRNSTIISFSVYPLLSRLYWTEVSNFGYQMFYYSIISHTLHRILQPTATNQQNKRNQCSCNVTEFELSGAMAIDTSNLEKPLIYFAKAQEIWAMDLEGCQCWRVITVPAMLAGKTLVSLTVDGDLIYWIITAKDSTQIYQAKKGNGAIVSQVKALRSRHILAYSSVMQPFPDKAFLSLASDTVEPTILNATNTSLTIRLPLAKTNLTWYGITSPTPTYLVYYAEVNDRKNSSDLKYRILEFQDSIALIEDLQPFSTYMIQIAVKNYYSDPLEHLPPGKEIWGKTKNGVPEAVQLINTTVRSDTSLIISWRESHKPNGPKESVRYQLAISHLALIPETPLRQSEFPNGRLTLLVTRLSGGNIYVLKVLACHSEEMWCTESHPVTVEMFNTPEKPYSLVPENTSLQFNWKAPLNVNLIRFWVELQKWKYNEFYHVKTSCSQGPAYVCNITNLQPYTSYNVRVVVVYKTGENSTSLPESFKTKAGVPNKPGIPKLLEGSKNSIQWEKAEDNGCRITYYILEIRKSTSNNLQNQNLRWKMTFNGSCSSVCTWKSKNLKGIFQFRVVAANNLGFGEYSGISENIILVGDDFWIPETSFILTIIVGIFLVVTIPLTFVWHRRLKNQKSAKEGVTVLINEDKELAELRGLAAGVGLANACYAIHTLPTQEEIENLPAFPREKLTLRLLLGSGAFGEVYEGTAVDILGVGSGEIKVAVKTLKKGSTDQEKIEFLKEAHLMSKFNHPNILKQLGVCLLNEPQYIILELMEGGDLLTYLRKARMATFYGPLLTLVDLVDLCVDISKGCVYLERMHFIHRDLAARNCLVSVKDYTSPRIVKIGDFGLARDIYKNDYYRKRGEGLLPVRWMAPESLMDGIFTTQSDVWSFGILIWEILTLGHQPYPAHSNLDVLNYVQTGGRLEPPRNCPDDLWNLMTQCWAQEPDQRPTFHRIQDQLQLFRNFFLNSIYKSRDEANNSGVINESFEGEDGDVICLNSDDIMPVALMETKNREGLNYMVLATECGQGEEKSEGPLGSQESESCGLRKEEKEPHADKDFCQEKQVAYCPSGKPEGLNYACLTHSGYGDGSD
UniProt P23458: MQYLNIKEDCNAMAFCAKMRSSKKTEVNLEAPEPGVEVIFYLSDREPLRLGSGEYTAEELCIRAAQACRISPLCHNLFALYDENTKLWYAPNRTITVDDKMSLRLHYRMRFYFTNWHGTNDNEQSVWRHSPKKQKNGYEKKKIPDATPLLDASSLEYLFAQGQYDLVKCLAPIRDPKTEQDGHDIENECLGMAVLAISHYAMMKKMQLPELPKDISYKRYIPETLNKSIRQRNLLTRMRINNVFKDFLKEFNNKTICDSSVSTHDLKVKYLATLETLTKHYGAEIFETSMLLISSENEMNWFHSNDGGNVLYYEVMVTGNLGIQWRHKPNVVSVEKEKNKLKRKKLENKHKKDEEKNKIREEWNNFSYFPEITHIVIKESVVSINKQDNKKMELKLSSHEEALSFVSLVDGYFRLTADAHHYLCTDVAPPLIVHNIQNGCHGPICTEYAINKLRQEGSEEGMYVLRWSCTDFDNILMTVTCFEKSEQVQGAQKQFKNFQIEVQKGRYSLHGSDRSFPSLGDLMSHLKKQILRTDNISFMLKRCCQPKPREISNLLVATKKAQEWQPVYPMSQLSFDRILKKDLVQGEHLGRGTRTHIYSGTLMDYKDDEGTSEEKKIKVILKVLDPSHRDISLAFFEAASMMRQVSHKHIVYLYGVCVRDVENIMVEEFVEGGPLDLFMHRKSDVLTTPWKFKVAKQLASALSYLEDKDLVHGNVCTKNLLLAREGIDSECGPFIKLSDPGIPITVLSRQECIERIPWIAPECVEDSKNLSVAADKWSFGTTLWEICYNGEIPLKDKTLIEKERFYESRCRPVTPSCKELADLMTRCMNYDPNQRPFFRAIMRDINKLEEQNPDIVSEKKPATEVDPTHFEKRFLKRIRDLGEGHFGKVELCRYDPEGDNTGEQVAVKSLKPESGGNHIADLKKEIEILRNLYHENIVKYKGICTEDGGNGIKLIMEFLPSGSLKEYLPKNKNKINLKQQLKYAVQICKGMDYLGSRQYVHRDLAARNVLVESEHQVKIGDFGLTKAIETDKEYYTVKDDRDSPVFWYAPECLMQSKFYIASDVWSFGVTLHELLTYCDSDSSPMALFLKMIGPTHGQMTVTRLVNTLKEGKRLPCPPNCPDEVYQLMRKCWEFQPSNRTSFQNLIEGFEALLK

Legend:
[1] = molecular target: ALK tyrosine kinase receptor (Homo sapiens) (UniProt Q9UM73); assay: Inhibition of ALK (unknown origin) at 1 uM relative to control
[2] = molecular target: Proto-oncogene tyrosine-protein kinase ROS (Homo sapiens) (UniProt P08922); assay: Inhibition of ROS1 (unknown origin) at 1 uM relative to control
[3] = molecular target: Tyrosine-protein kinase JAK1 (Homo sapiens) (UniProt P23458); assay: Inhibition of JAK1 (unknown origin) at 1 uM relative to control

Row | inhibition [1] [%] | inhibition [2] [%] | inhibition [3] [%] | Compound
1 | 62 | 99 | 11 | Fc1ccc(OCC(F)(F)F)c([C@H]2CCCN2c2ccn3ncc(-c4cn[nH]c4)c3n2)c1
2 | 78 | 96 | 13 | C[C@@H]1CCc2ncc(F)cc2[C@H]2CCCN2c2ccn3ncc(c3n2)C(=O)N1 [SELITRECTINIB]
